# Experimental data as given in publication PMC7383964 (Chemmedchem, 2020).
# Some compounds may have been tested in ways that are not shown here.
# Target: human δ‐OR (Homo sapiens, UniProt P41143)
# Assay: Radioligand competition binding with [^3H]diprenorphine, membranes of transiently transfected HEK293T cells
# Details: read-out: K D of the radioligand for δ‐OR
substance,measurement,value
[^3H]diprenorphine,Kd,0.24 nM
